Structures can show the parent of a compound that is named as a salt.
Experiments:
[1] = tested on: rats; test: in vivo; settings: oral, 7 days, Litchfield and Wilcoxon
Method: (§1) In the present study the test compounds were administered perorally by means of a stomach tube as an aqueous suspension in 5% acacia gum at a constant volume of 10 ml/kg to male Swiss mice and male Sprague-Dawley rats. Control rats and mice were given a corresponding volume of the aqueous suspension medium.
(§2) The acute toxicity was determined on groups of 10 rats treated orally with 500, 1000, 1500 and 2000 mg/kg of the test compound by means of a stomach tube.

[2] = in vivo; settings: rat, in vivo; rats, oral, 7 days, Litchfield and Wilcoxon
Method: as §1, §2

[3] = tested on: rats; test: Analgesic-anti-inflammatory activity, Randall and Selitto, brewer's yeast inflamed paw in rats (Table IV); format: in vivo, male Sprague-Dawley rats; settings: ratio to controls (1.0)
Method: as §1, with “medium. The results were statistically evaluated by Dunnett's test (C. V. Dunnett.: J.A. Stat. Ass., 40, 1096, 1955).” for “medium.”
4. Analgesic-anti-inflammatory activity
The analgesic-anti-inflammatory activity was evaluated in rats by the method of Randall and Selitto (Arch. Int. Pharmacodyn., 111, 409, 1957), using an analgesimeter to measure the minimum load that must be applied to a rat's hind paw to elicit a painful stimulus.
Both the controls and the experimental rats were injected into the right hind paw with 0.1 ml of 20% brewer's yeast in sterile saline immediately before the administration of the test compound.
The volume of the inflamed right hind paw was measured 1, 2 and 4 hours after the administration of the test compound.
The analgesic-anti-inflammatory activity was evaluated using an "analgesic index" expressed as a ratio between the sum of the average weights (grams) necessary to provoke a painful stimulus at different times in treated and control animals.

[4] = tested on: rats; test: Ulcerogenic effect, gastric lesions in rats (Table VIII); format: in vivo, male Sprague-Dawley rats; settings: single dose, 16 h
Method: as §1, with “medium. The results were statistically evaluated by Dunnett's test (C. V. Dunnett.: J.A. Stat. Ass., 40, 1096, 1955).” for “medium.”
The ulcerogenic effect was determined in rats by the method of Niemegeers et al. (Arzneimittel-Forschung 25, 1537, 1975). A single oral dose was administered to groups of 15 rats fasted for 9 hours before treatment and kept fasting throughout the whole experimental period. The animals were sacrificed 16 hours after treatment; the severity of lesions was scored according to an arbitrary scale ranging from + to ++++. For each group of rats, an ulcerogenic index was calculated according to Pauls et al., (Gastroenterology 8, 774, 1947).

Structure (SMILES): CCCCC(C(=O)O)C(=O)N(Nc1ccccc1)c1ccccc1 (stereo not drawn) [B, Calcium salt of butylpropanedioic acid mono(1,2-diphenylhydrazide)]
- LD50 confidence limits [1]: 537.75-1,179.28 mg/kg
- LD50 at 168 h [2]: 796 mg/kg
- Analgesic Index ([3]; 40 mg/kg oral): 1.27
- Analgesic Index ([3]; 80 mg/kg oral): 1.34
- Analgesic Index ([3]; 160 mg/kg oral): 1.57
- Ulcerogenic Index ([4]; 40 mg/kg oral): 0
- Ulcerogenic Index ([4]; 80 mg/kg oral): 0
- Ulcerogenic Index ([4]; 160 mg/kg oral): 0.47
- Ulcerogenic Index ([4]; 320 mg/kg oral): 81.63
